Test results published in patent publication US20080287445A1, “Prokineticin 2 receptor antagonists” (priority 2005, published 2008).

Test system: rat ileum mucosa

Row | Structure (SMILES) | blockade of the pro-secretory effect of PK1
1 | CN1[C@@H]2CC[C@H]1C[C@@H](OC(=O)C(CO)c1ccccc1)C2 (some centres unmarked) [Atropine, reference compound] | not blocked
2 | NC1=N[C@H](O)[C@H]2[C@H]3O[C@]4(O)O[C@@H]([C@@H](O)[C@@]2(N1)[C@@H]4O)[C@]3(O)CO [Tetrodotoxin, reference compound] | not blocked
